Values of other authors in article PMC4648043, “Development of Small-Molecule Trypanosoma brucei N-Myristoyltransferase Inhibitors: Discovery and Optimisation of a Novel Binding Mode” (Chemmedchem, 2015).

Tested on: T. brucei
Settings: read-out: T. brucei EC50; previously published inhibitor; cited from earlier work

Cc1nn(C)c(C)c1NS(=O)(=O)c1c(Cl)cc(-c2ccnc(N3CCNCC3)c2)cc1Cl [DDD85646]
EC50: 2 nM
